These results are taken from patent publication US20110251126A1, “INTESTINAL TREATMENT” (priority 2008, published 2011).

By UniProt entry, the sequences of proteins in these tests, tags left out. Where a name states a change or a piece, a line headed by the entry shows the natural chain unless it says otherwise.
UniProt P50391: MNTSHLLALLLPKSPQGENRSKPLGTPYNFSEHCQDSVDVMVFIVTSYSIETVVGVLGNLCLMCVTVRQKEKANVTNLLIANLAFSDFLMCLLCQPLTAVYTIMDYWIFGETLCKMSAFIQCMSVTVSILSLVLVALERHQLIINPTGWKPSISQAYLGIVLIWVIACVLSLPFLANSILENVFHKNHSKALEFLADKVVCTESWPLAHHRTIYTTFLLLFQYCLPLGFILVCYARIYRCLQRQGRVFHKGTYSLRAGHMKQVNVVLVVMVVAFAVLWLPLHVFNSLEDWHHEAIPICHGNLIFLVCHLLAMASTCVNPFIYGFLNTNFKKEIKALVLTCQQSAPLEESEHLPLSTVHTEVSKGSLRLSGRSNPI

Assay [1] has as its target T1, Y4 receptors (Homo sapiens, UniProt P50391). The assay can be described thus: Human Y4 receptor potency assay (inositol phosphate turnover, transfected COS-7 cells). Further details: expressed in transfected cells; host or cells: COS-7 cells, transient transfection. Format: cell-based. The settings on record: ratio of potencies, Y2 vs Y4 potency assays. The method, then: Potency of the test compounds on the human Y2 receptor is determined by performing dose-response experiments in COS-7 cells transiently transfected with the human Y2 receptor cDNA as well as a promiscuous G protein, Gqi5 which ensures that the Y2 receptor couples through a Gq pathway leading to an increase in inositol phosphate turnover.
Phosphatidylinositol turnover—One day after transfection COS-7 cells are incubated for 24 hours with 5 μCi of [3H]-myo-inositol (Amersham, PT6-271) in 1 ml medium supplemented with 10% fetal calf serum, 2 mM glutamine and 0.01 mg/ml gentamicin per well. Cells are washed twice in buffer, 20 mM HEPES, pH 7.4, supplemented with 140 mM NaCl, 5 mM KCl, 1 mM MgSO4, 1 mM CaCl2, 10 mM glucose, 0.05% (w/v) bovine serum; and are incubated in 0.5 ml buffer supplemented with 10 mM LiCl at 37 C for 30 min. After stimulation with various concentrations of peptide for 45 min at 37 C, cells are extracted with 10% ice-cold perchloric acid followed by incubation on ice for 30 min. The resulting supernatants are neutralized with KOH in HEPES buffer, and the generated [3H]-inositol phosphate are purified on Bio-Rad AG 1-X8 anion-exchange resin and counted in a beta counter. Determinations are made in duplicates. EC50 values were calculated using a standard pharmacological data handling software, Prism 3.0 (graphPad Sofware, San Diego, USA). […]

Assay [2] deals with colonic damage. The settings on record: animal model for inflammatory bowel disease; cited from earlier work.
Assay [3] addresses T1, Y4 receptors. The settings on record: Michel et al. 1998; cited from earlier work.

With PYY3-36, the “more potent towards the Y2 receptor than towards the Y4 receptor” value in assay [1] was “more than 10,000 fold”. In addition, the colonic damage result in assay [2] is “reduce colonic damage”.

For the substance “PYY: naturally secreted 36 amino acid, C-terminally amidated PP-fold peptide [Peptide YY]”, the “affinity for Y4 receptors” value in assay [3] is “nanomolar”.
